A short description of assay [1]: total CFTR protein upregulators, primary screen, cell-based, HeLa F508del-CFTR, immunofluorescence, viability (AID 1224863).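 As to fold increase: total CFTR protein by anti-CFTR immunofluorescence in fixed cells.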 As to conditions: 24 h, stronger effect = higher value; min viability: measured here: HeLa viability, alamarBlue, dose 20, library dosed in µg/mL unless noted; viability: measured here: primary viability 10 ug/mL, library dosed in µg/mL unless noted. In general terms: Alamar Blue is a resazurin reagent that responds to reducing activity.

Protein sequences, listed by entry. Tags and fused reporters are not part of them. Chains listed by the source or under a name are the forms on record and can include a tag or linker.
UniProt P13569, with tags, fused parts or gaps F508del: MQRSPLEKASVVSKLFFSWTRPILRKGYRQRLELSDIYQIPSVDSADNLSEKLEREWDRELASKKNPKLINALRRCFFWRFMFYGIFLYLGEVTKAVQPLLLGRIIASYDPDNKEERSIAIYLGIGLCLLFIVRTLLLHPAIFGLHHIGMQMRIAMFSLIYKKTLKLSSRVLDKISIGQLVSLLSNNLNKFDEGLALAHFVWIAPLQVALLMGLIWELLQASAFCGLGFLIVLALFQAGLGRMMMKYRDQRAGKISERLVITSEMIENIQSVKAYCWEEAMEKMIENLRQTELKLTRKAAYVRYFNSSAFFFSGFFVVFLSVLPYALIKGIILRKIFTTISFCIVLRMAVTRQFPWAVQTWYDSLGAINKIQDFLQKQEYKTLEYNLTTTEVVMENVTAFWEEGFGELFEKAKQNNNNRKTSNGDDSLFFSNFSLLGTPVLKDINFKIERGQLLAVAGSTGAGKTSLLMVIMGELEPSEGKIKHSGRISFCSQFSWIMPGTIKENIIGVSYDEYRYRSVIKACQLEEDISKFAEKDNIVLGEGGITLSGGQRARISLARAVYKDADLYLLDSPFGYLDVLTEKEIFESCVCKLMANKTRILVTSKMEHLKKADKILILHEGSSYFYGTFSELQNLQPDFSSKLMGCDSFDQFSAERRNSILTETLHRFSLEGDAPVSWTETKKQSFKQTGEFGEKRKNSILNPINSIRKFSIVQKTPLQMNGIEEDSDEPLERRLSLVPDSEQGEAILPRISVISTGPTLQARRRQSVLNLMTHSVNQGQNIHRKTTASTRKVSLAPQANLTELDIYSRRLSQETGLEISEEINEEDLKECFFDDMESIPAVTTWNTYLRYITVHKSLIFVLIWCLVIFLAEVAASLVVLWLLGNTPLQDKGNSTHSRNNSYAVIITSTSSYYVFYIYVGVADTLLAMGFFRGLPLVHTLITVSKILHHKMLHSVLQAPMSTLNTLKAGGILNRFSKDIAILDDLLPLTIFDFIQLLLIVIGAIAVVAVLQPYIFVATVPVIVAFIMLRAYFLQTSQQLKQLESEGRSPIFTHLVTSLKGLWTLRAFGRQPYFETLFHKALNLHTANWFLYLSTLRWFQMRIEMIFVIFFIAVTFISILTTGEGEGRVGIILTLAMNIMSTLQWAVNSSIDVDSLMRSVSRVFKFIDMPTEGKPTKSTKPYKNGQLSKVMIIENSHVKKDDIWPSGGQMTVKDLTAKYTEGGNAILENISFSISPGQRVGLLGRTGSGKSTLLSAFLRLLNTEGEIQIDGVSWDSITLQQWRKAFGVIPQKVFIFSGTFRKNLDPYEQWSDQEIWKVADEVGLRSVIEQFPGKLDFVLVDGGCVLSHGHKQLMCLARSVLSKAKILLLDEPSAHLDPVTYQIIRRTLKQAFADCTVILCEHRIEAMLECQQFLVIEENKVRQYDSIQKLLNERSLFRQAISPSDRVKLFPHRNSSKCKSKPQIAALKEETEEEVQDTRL

Assay [2] deals with Cystic fibrosis transmembrane conductance regulator (Homo sapiens) (UniProt P13569). The description is as above. As to conditions: 24 h; fold increase: measured here: primary screen 10 ug/mL, library dosed in µg/mL, stronger effect = higher value unless noted; max fold increase: dose 10, library dosed in µg/mL, stronger effect = higher value unless noted; outcome: library dosed in µg/mL unless noted.

Out of some 10,000 compounds screened, about 15 (0.1%) were called active.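 The calls were made as follows: active = highest signal at least 8 times the median of untreated cell-only control wells at some dose; inactive = the rest.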 Not all results are given here.

Drawing on PubChem BioAssay AID1224863 (Southern Research Institute, 2016), this text covers viability, fold increase and outcome for 23 compounds.

The term viability denotes a read-out of living cells in per cent, often relative to untreated cells. With `CC(C)Cn1nnc(-c2ccc(Cl)cc2)n1`, in assay [1], the viability was determined as 99%. In assay [2], the fold increase turned out to be 1.4 and the outcome was inactive.
The like results for `O=C(O)c1cc(C2CC2)nc2onc(-c3ccco3)c12` were, in that order, 109%, 1.11 and “inactive”.
Take `N#Cc1nc2c(S(=O)(=O)c3ccc(Cl)cc3)c(N)n(Cc3ccc(C(F)(F)F)cc3)c2nc1C#N`: the viability in assay [1] came out at 87%. Besides, in assay [2], the fold increase is 0.86 and the compound was called inactive.
With `Cc1cc(C)n2c(=S)n(CN(C)Cc3ccccc3Cl)nc2n1`, the viability in assay [1] turned out to be 97%. In addition, in assay [2], the fold increase was found to be 0.97 and the compound was classed as inactive.
Consider `CC(NCC(O)c1ccccc1)c1ccccc1` (centres undefined), for which, in assay [1], the viability came out at 103%. Besides, in assay [2], the fold increase came out at 1.06 and the outcome was inactive.
`CC(Cc1ccc(Cl)cc1)NC(=O)C1(C)CC1(Cl)Cl` (centres undefined): the viability in assay [1] was found to be 94%. Also, in assay [2], the fold increase amounted to 0.98 and the result was inactive.
As for `COc1ccc2c(COC(=O)c3ccc4c(c3)S(=O)(=O)N=C3CCCCCN34)cc(=O)oc2c1`, in assay [1], the viability was 83%. In assay [2], the fold increase worked out at 1.02 and the result was inactive.
Take `CCc1c(C)sc2nc(SCCO)n(CCOC)c(=O)c12`: the viability in assay [1] worked out at 95%. Also, in assay [2], the fold increase came out at 1 and the call was inactive.
On to `CCOC(=O)C1=C(CC)Nc2ccccc2N=C1NC(=O)C12CC3CC(CC(Cl)(C3)C1)C2`, for which the viability in assay [1] was determined as 85%. Moreover, in assay [2], the fold increase came out at 1.09 and the result was inactive.
`Cn1ccc(S(=O)(=O)N2CCN(C(=O)CCC(=O)c3cccs3)CC2)c1`: in assay [1], the viability is 103%. Moreover, in assay [2], the fold increase is 1.19 and the compound was called inactive.
Consider `CCc1cc(OCCCCNC)ccc1Cl`, for which, in assay [1], the viability stood at 104%. In assay [2], the fold increase turned out to be 1.06 and the compound was called inactive.
As to `Cc1c(C(=O)CN2C(=O)NC3(CCOc4ccccc43)C2=O)sc2ccccc12` (centres undefined), the viability in assay [1] amounted to 115%. Besides, in assay [2], the fold increase is 1.07 and the compound was classed as inactive.
The like results for `COC(=O)c1ccc(OCC(=O)c2ccc3c(c2)CCO3)c(OC)c1` were, in that order, 97%, 1.01 and “inactive”.
With `CC(CCc1ccco1)NC(=O)N1CCN(Cc2nc3scc(-c4cccs4)c3c(=O)[nH]2)CC1` (centres undefined), the viability in assay [1] was found to be 92%. Besides, in assay [2], the fold increase amounted to 0.93 and the compound was called inactive.
With `c1ccc2c(c1)ncn2CN1CCN(Cc2csc3ccccc23)CC1`, the viability in assay [1] is 107%. Further, in assay [2], the fold increase was 1.18 and the compound was called inactive.
As for `Cc1cccc(CN2CCN(CN3C(=O)C(=O)N(C(C)C)C3=O)CC2)c1`, the viability in assay [1] is 95%. In assay [2], the fold increase was found to be 1.02 and the compound was classed as inactive.
As to `CN(C)S(=O)(=O)N1CCN(C(=O)Nc2cccc3c2CCCC3)CC1`, the viability in assay [1] stood at 102%. For the same compound, in assay [2], the fold increase stood at 0.97 and the result was inactive.
The like results for `COCC(C)NC(=O)c1sccc1C` (centres undefined) were, in that order, 102%, 0.9 and “inactive”.
Consider `CC(C)(C)OC(=O)N1CC=C(n2c(=O)n(CN3CCN(c4ccccc4)CC3)c3ccccc32)CC1`, for which the viability in assay [1] is 98%. In assay [2], the fold increase was 1.06 and the compound was called inactive.
Take `COc1ccc(C)cc1-n1nnnc1SCC1CC1(Cl)Cl` (centres undefined): in assay [1], the viability came to 86%. Further, in assay [2], the fold increase worked out at 0.87 and the compound was classed as inactive.
Turning to `Cn1nnnc1SCc1ncc(-c2ccc(F)cc2)o1`, in assay [1], the viability worked out at 94%. In addition, in assay [2], the fold increase amounted to 1.03 and the call was inactive.
As for `CN(C)S(=O)(=O)c1ccc(CN2C(=O)NC(C)(c3ccco3)C2=O)o1` (centres undefined), in assay [1], the viability stood at 97%. Further, in assay [2], the fold increase was determined as 0.98 and the call was inactive.
As for `COc1ccc(S(=O)(=O)Nc2ccc(N3CCCC3)cc2)cc1OC`, in assay [1], the viability is 84%. Moreover, in assay [2], the fold increase stood at 0.85 and the result was inactive.
